# The entries are a selection whose mix differs from that of the whole data set. Activity calls are given as the source filed them.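 Rule for the calls: active = percent inhibition above the average of all tested compounds plus 3 SD, set per screening campaign (cut at about 16% in these data); inactive = the rest.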
# By UniProt entry, the sequences of proteins in these tests, tags left out.
# UniProt P14735, whole entry, looked up: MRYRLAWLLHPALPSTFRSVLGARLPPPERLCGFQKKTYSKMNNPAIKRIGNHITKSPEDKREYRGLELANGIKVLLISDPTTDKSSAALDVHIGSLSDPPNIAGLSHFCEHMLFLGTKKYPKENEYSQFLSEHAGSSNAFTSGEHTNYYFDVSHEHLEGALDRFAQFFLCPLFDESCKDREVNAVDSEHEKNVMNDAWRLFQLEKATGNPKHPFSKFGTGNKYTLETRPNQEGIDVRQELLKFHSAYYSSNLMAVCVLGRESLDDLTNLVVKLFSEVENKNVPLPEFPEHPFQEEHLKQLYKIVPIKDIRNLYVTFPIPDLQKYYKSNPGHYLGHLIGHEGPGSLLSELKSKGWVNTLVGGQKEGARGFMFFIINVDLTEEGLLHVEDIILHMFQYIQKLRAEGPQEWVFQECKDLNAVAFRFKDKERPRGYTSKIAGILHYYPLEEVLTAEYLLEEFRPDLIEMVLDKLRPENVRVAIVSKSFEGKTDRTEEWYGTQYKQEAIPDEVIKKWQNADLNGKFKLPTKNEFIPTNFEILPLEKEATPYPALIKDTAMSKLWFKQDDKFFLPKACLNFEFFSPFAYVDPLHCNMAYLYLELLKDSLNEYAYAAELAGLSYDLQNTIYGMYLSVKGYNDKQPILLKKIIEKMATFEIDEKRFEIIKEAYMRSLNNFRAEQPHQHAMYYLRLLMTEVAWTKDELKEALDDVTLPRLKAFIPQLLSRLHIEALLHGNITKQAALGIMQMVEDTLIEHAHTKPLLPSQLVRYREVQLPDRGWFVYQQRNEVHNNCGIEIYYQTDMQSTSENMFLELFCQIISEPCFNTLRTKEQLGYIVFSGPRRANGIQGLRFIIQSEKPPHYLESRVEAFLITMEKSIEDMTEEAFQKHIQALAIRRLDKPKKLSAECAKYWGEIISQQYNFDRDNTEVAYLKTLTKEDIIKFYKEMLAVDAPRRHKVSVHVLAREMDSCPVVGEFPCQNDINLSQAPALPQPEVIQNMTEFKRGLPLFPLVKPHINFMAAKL
# Biological target: Insulin-degrading enzyme (Homo sapiens) (UniProt P14735)
# Test: human IDE inhibitors in live cells, primary screen, fluorescence polarization, HEK cells, FAbetaB substrate (AID 434962);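 note: IDE supplied by intact live HEK cells; FP after avidin binding of uncleaved biotin substrate so inhibition keeps polarization high; 0% = DMSO wells and 100% = 60 µM reference IDE inhibitor Ii1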
# Conditions: FAbetaB cleavage, at 5.59 µM, active compounds read high
row,Structure (SMILES),inhibition
1,CC(C)(C)C(=O)NC(Sc1ccncn1)C(Cl)(Cl)Cl (configuration not stated),inactive: 3.3%
2,O=[N+]([O-])c1ncn(CCn2ncnc2[N+](=O)[O-])n1,inactive: 0.49%
3,O=[N+]([O-])c1cccc(NC2=NCC(CBr)S2)c1 (configuration not stated),inactive: -1.49%
4,O=C(Nc1cc([As](=O)(O)O)ccc1O)c1ccccc1,inactive: -5.5%
5,C[N+]1=C2C=CC=CC=C2SC12C([N+](=O)[O-])=CC([N+](=O)[O-])=C[C-]2[N+](=O)[O-] (configuration not stated),inactive: 3.41%
6,Nc1ccc([As](=O)(O)c2ccc(N)cc2)cc1,inactive: 5.4%
7,CCN(/C(=N/P(=O)(N1CCOCC1)N1CCOCC1)N1CCOCC1)c1ccc(OC)cc1,inactive: -0.51%
8,CN(C)C(=O)OCCc1n(C)cc[n+]1C,inactive: 2.98%
9,CC(C)=N/N=C(\N)N[N+](=O)[O-],inactive: 3.33%
10,CC1CCN(C(=O)Oc2c(Cl)cc(Cl)c3cccnc23)CC1,inactive: 6.17%
11,COc1ccc(C2=NCC(CBr)S2)cc1 (configuration not stated),inactive: 3.43%
12,O=[N+]([O-])c1cccc2n[nH]nc12,inactive: 7.28%
13,CC(=O)N1C2C3N(C(C)=O)C1C1N(C(C)=O)C(C(N1C(C)=O)N3C(C)=O)N2C(C)=O,inactive: 4.83%
14,CCc1nc2c(n1)c1c(non1O)c1c2no[n+]1[O-],inactive: 2.5%
15,O=[N+]([O-])c1cc([N+](=O)[O-])c(CCNc2ccccc2)c([N+](=O)[O-])c1,inactive: 2.15%
16,Cc1ccc(NP(=O)(Oc2ccccc2)Oc2ccccc2)nc1,inactive: 1.85%
17,CC(C)CC(=O)NC(Sc1ccc(Cl)cc1)C(Cl)(Cl)Cl (configuration not stated),inactive: -4.75%
18,Nc1cc(N)c2nonc2c1[N+](=O)[O-],inactive: -8.67%
19,Cc1c2non([O-])c-2c(C)[n+](=O)[n+]1[O-],inactive: 8.69%
20,O=C(NC(Sc1ccncn1)C(Cl)(Cl)Cl)c1ccccc1 (configuration not stated),inactive: 3.93%
21,Oc1ccccc1CNc1ccccn1,inactive: -4.12%
22,NC(=O)c1cc([N+](=O)[O-])cc([N+](=O)[O-])c1N,inactive: 0.28%
23,Cc1ccc(N/C(=N/P(=O)(N2CCOCC2)N2CCOCC2)N2CCOCC2)cc1,inactive: 6.38%
24,CN(C(=O)Cc1ccc(Cl)c(Cl)c1)[C@H]1CCCC[C@H]1N1CCCC1,inactive: 4.93%
25,Cc1ccc(OP(=O)(Nc2nccs2)Oc2ccc(C)cc2)cc1,inactive: 3.08%
26,COc1ccccc1OP(=O)(Nc1ccc(C)cn1)Oc1ccccc1OC,inactive: -2.35%
27,Clc1ccc(Cl)c(NC2=NCC(CBr)S2)c1 (configuration not stated),inactive: -2.82%

# Source: PubChem BioAssay AID434962 (The Scripps Research Institute Molecular Screening Center, 2010)
